For the assay, the target named is 5-hydroxytryptamine receptor 1A (Rattus norvegicus, UniProt P19327).

Sequences of proteins named here, by UniProt entry; tags and fusion partners are left off.
UniProt P19327, whole entry: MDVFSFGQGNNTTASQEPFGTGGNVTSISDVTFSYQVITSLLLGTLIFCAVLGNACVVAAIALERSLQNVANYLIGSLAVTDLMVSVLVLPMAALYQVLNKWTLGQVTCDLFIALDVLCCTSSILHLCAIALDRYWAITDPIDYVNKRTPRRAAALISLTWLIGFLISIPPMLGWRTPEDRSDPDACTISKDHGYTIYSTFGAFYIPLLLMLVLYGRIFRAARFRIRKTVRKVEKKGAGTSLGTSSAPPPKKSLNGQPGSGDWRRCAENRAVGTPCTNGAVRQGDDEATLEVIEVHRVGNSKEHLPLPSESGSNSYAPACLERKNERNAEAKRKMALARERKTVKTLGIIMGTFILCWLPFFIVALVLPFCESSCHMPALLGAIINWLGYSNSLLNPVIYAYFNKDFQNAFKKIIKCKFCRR

Regarding `COc1ccc2[nH]cc(C3=CCNCC3)c2c1` [5-Methoxy-3-(1,2,3,6-tetrahydro-pyridin-4-yl)-1H-indole(RU-24969)], the affinity corresponds to a Ki of 9.77 nM.
`NCCc1c[nH]c2ccc(O)cc12` [[3H]-5-HT] yielded a Ki of 46.8 nM.

A word on the Ki: it is the dissociation constant of the complex between target and ligand, obtained from inhibition or displacement. The low end stands for tighter binding, the high end for weaker binding.

These data come from BindingDB's records for doi:10.1038/305140a0 (College of France, 1983).
